{"source": "paper PMC4072508", "about": "(PLoS Computational Biology, 2014)", "biological_target": "T1, Bcl-xL (human, UniProt Q07817-1 1-233)", "T1 construct": "human Bcl-xL; The c-Myc tag is told for the SPOT arrays; also called c-Myc-tagged receptor; prosurvival protein", "test": "fluorescence polarisation; direct binding: 10 nM FAM-labeled peptide, receptor serially diluted; 25°C; 20 mM NaPO4, 50 mM NaCl, 1 mM EDTA, 0.001% Triton X, pH 7.8; single-site binding model", "conditions": "both partners purified", "data": [{"binder": "IIQMIVELLKRVGDQWEEEQSLA (N-terminal fluorescein group (FAM); amidated C-terminus)", "note": "[c6orf222 BH3-like peptide]", "values": [{"measurement": "Kd", "result": "< 30", "unit": "nM"}]}]}
